# Antibody variant affinities, Ab-14 light chain, assay B

Data: MIT Lincoln Laboratory AlphaSeq set, Li et al. 2023, doi:10.1038/s41467-023-39022-2, as distributed in FLAb.

Antigen: PDVDLGDISGINAS, a 14-residue peptide of the SARS-CoV-2 spike HR2 region.

Parent scFv Ab-14: VH joined to VL by the linker GGGGSGGGGSGGGGS. Changes lie in the light chain CDRs alone.
VH: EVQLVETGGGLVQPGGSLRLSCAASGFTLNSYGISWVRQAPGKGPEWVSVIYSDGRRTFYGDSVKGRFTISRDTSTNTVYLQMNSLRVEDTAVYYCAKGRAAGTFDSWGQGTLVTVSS
VL: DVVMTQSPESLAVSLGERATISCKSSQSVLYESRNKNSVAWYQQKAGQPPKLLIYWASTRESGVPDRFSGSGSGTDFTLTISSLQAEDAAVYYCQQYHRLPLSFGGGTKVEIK

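The starting antibody came from a phage panning campaign against this peptide. This is the validation round: designs drawn from the data on random variants, tested in the same kind of assay. Their group label is 14L_GP_Gibbs (GP: Gaussian process model; Gibbs: Gibbs sampling; a sequence that several methods proposed may carry one label only). The scFvs were displayed on barcoded MATa yeast, the peptide on MATalpha yeast. After mating in shaken culture at 30 °C for 16 h, diploids were selected and their barcode pairs sequenced. Scores were corrected for input abundance and mapped to Kd with protein pairs of known affinity run in the same pool. There are six technical replicates.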

Each variant is given by its three light chain CDRs, as the data file delimits them; those of the parent are KSSQSVLYESRNKNSVA, WASTRES, QQYHRLPLS. Scale: log10 of Kd in nM, estimated from mating counts; low values are strong binders. A mean of the replicates is given; it leaves out those without a signal.

CDR-L1,CDR-L2,CDR-L3,"log10 Kd, replicates",mean log10 Kd (nM),empty controls
KLSMSDLYEMRNKNSVA,EASTREK,QQYHRLPLS,-0.03 / -0.20 / -0.18 / -0.38 / -0.29 / -0.23,-0.22,1 of 18 (1.75)
KVSQSYGYESNNSNSVA,NASQREH,QQYHRLPLS,0.37 / 0.46 / 0.57 / 1.04 / 0.53 / 0.54,0.59,0 of 18
KLSLSVLLESRNVNAVA,EASTRES,QDYHRLPLS,1.41 / 1.02 / 1.19 / 0.87 / 1.42 / 0.95,1.15,2 of 18 (1.83)
KVSQAQDYESRNKNSVA,QASHREQ,QQYHRLPLY,0.87 / 0.89 / 1.05 / 0.56 / 1.21 / 0.98,0.93,0 of 18
KLQQSVGMESWNVNNVA,AASTRED,QQYHRLPLS,1.01 / 1.33 / 1.26 / 1.17 / 1.62 / 1.15,1.26,2 of 18 (2.17)
KLSPSVMGWMRNKNSVA,NASTRMS,QQYHRLPLS,0.87 / 0.57 / 0.43 / 0.40 / 0.66 / 0.72,0.61,0 of 18
KLQQQSLYESRNKNSVA,EASTRES,QQYHRLPLS,0.07 / 0.62 / -0.47 / -0.55 / -0.24 / 0.45,-0.02,0 of 18
KLHQSMGYEQRNKNSVA,SASTRSH,QQYHRLPLS,0.66 / 0.41 / 0.44 / 0.32 / 0.91 / 0.53,0.55,0 of 18
KISQSWLYESRNINNVA,NCSMRES,QQYHRLPLS,0.61 / 0.50 / 0.49 / 0.61 / 0.37 / 0.45,0.51,1 of 18 (3.65)
LWSQSELLESRNHNSVA,DASTRCS,QQYHRLPLS,0.50 / 0.23 / 0.25 / -0.20 / -0.14 / -0.14,0.08,1 of 18 (2.42)
KSMQSELDENRNKNSVA,SASTRLS,QQYHRLPLS,-0.22 / -0.22 / -0.01 / -0.28 / -0.06 / -0.18,-0.16,0 of 18
KLPQSWLYESANSNSVA,HASQRED,QQYHRLPLS,0.20 / 0.03 / -0.10 / -0.24 / -0.18 / 0.21,-0.01,0 of 18
KLSQSVKYEDRNWNNVA,NASKRES,QAYHRLPLS,0.85 / 0.84 / 0.58 / 0.70 / 0.50 / 0.68,0.69,2 of 18 (3.73)
KLQQSVLMGSRNKNSVA,EASTRRV,QAYHRLPLS,1.77 / 1.33 / 1.32 / 1.34 / 1.48 / 1.13,1.40,0 of 18
KIQQSELQSSRNKNSVA,NASERES,QQYHRLPLS,-0.16 / -0.20 / -0.31 / -0.21 / -0.56 / -0.19,-0.27,0 of 18
KLFQSNEYESRNKNSVA,NASQREW,QQYHRLPLS,0.30 / 0.16 / -0.04 / -0.14 / -0.04 / 0.13,0.06,1 of 18 (2.60)
KLHISDGYEQRNKNSVA,SASTRSH,QQYHRLPLS,0.51 / 0.53 / 0.38 / 0.39 / 0.64 / 0.57,0.50,2 of 18 (2.48)
KVSFSVMLESRNKNAVA,EASTRES,QDYHRLPLS,0.59 / 0.17 / 0.40 / 0.16 / 0.36 / 0.36,0.34,1 of 18 (1.63)
KCMQSSDYESRNKNSVA,NASTREV,QQYHRLPLS,0.26 / 0.33 / 0.60 / 0.50 / 0.30 / 0.10,0.35,1 of 18 (2.75)
KLMWSMQYESRNKNSVA,HASYRES,QQYHRLPLS,1.43 / 2.36 / 1.98 / 1.58 / 1.95 / 1.41,1.78,1 of 18 (2.89)
KMMQSQLYEDRASNAVA,HASQRES,QQYHRLPLS,0.47 / 0.04 / -0.03 / -0.05 / -0.18 / -0.31,-0.01,0 of 18
KQEQGDLMESRNKNSVA,HASERES,QQYHRLPLS,0.19 / 0.16 / -0.03 / -0.13 / -0.08 / 0.08,0.03,0 of 18
KFSQSDLYEDRAKNSVA,NASTRLW,QQYHRLPLS,0.12 / -0.05 / -0.03 / -0.17 / 0.04 / 0.16,0.01,0 of 18
KWSQSWLMESMNSNSVA,NASQRES,QQYHRLPLS,0.72 / 0.63 / 1.31 / 0.81 / 1.09 / 1.57,1.02,0 of 18
KVQQSELGLSRNKNSVA,EASTRED,QQYHRLPLS,0.17 / -0.02 / -0.07 / -0.14 / -0.15 / 0.10,-0.02,4 of 18 (3.11)
FVSQSQLYESRNKNSVA,NGSTRES,QQYHRLPLS,-0.31 / -0.27 / -0.40 / -0.58 / -0.43 / -0.16,-0.36,0 of 18
KVPQSMLYESRNANNVA,AASQRES,QQYHRLPLS,-0.69 / -0.70 / -0.75 / -0.94 / -0.75 / -0.44,-0.71,0 of 18
KCSQSVDYESRQKNSVA,NASTRLS,QQYHRLPLS,0.63 / 0.41 / 0.23 / 0.64 / 0.75 / 0.60,0.54,0 of 18
KSQQSWLYESRNSNSVA,NGSTREL,QDYHRLPLS,0.84 / 0.41 / 0.36 / 0.23 / 0.44 / 0.55,0.47,1 of 18 (1.66)
KWSQSVDYESRNKNSVA,NGSTRES,QQYHRLPLS,0.48 / 0.37 / 0.57 / 0.38 / 0.53 / 0.56,0.48,2 of 18 (3.35)
KAQQSVGYGERNSNSVA,EASTRES,QQYHRLPLS,0.72 / 0.65 / 0.65 / 0.41 / 0.47 / 1.03,0.65,2 of 18 (2.93)
KSSPSQLYEDREFNSVA,NASYRES,QQYHRLPLS,0.55 / 0.40 / 0.63 / 0.18 / 0.39 / 0.68,0.47,2 of 18 (2.60)
HLSQSVEGEESNKNSVA,SASTREQ,QQYHRLPLS,1.18 / 0.84 / 1.61 / 0.89 / 0.73 / 1.15,1.07,4 of 18 (2.88)
KLSQSMLYEERNKNNVA,SASHREH,QQYHRLPLS,-0.12 / -0.44 / -0.31 / -0.39 / -0.24 / -0.14,-0.27,0 of 18
KLQFSMLYESRNVNSVA,DASKRES,QAYHRLPLS,0.41 / 0.29 / 0.34 / 0.00 / 0.11 / 0.52,0.28,1 of 18 (4.34)
KLPNSWLYESRNSNSVA,HASKRMS,QQYHRLPLS,0.45 / 0.50 / 0.86 / 0.76 / 0.79 / 0.70,0.68,0 of 18
KVSASQLYWSRNKNSVA,NASTRET,QQYHRLPLS,-0.29 / -0.08 / -0.17 / -0.35 / -0.26 / -0.08,-0.21,1 of 18 (2.09)
KLSQSWLYEERNKNNVA,SASTREM,QQYHRLPLS,-0.48 / -0.59 / -0.75 / -0.77 / -0.77 / -0.52,-0.65,0 of 18
KLVESVLYESRQSNAVA,NASYREE,QQYHRLPLS,0.07 / 0.06 / -0.03 / -0.10 / 0.05 / 0.13,0.03,0 of 18
KMSQSAPMESRNANSVA,NASTREE,QQYHRLPLS,0.67 / 0.20 / 0.00 / -0.03 / 0.37 / 0.24,0.24,1 of 18 (2.55)
KVVQSVDYESRNKQSVA,DASTRCS,QQYHRLPLS,-0.19 / -0.13 / -0.17 / -0.30 / -0.26 / -0.07,-0.19,0 of 18
KIIQEGLYESRNKNSVA,SASTRSP,QQYHRLPLS,-0.13 / -0.11 / -0.06 / -0.36 / -0.16 / -0.09,-0.15,2 of 18 (3.26)
KLDISELGESRNWNSVA,NASQREE,QQYHRLPLW,0.10 / 0.18 / 0.26 / 0.06 / -0.05 / 0.17,0.12,0 of 18
KLSQSVWMLSRNKWSVA,NASYRES,QQYHRLPLS,0.23 / 0.19 / -0.02 / -0.11 / 0.32 / 0.00,0.10,0 of 18
KQQSSEMMGSRNKNSVA,SASKRES,QQYHRLPLS,1.19 / 1.37 / 1.39 / 1.10 / 1.33 / 0.90,1.21,2 of 18 (2.59)
KLQQSQLYGSRNKNSVA,DASTRLV,QAYHRLPLS,0.77 / 0.65 / 0.61 / 0.57 / 0.63 / 0.72,0.66,1 of 18 (2.76)
KVDQWEQYGSRNKNSVA,SASQRSS,QQYHRLPLS,0.54 / 1.24 / 0.64 / 0.79 / 0.72 / 0.84,0.79,1 of 18 (2.21)
KLSQSHLYESRNWNAVA,EASQRPS,QQYHRLPLS,0.13 / 0.04 / 0.07 / -0.10 / 0.16 / 0.08,0.06,1 of 18 (1.44)
KLSQSFLYESMNKNSVA,HASQRIW,QQYHRLPLS,0.68 / 0.65 / 0.47 / 0.41 / 0.37 / 0.37,0.49,0 of 18

In the paper, a design with two or fewer of six values counts as a poor binder. Background: pairings of all light chain designs with three empty control strains gave a value in 4% of cases (median 2.64, 5th percentile 1.59). Values in that range, when seen in few replicates, are hard to tell from nonspecific mating. Also given: how often the same scFv was detected with the empty control strains, with their mean in brackets. Values of this round are not directly comparable with the first-round values of the same sequences.